Experimental data: patent publication US20220323325A1, “COMPOSITIONS COMPRISING DISSUBSTITUTE TEREPHTHALATES AND ALSO LIGHT PROECTION FILTER SUBSTANCES, DEODORANT AND/OR ANTIPERSPIRANT ACTIVE INGREDIENTS” (Evonik Operations GmbH, priority 2019, published 2022)

Test: Dissolution capacity of UV light protection filters
Format: physicochemical
Conditions: 22° C., percentage by weight
From the text: To test the dissolution capacity of UV light protection filters, three representative UVA or UVB light protection filters were selected representatively. These are: • Butyl Methoxydibenzoylmethane (BMDM) • Ethylhexyl Triazone (EHT) • Bis-Ethylhexyloxyphenol Methoxyphenyl Triazine (BEMT).
To determine the dissolution capacity for these three UV light protection filters, a certain amount (50 g) of one of the compounds according to the invention was initially charged in each case and temperature-controlled at 22° C. A percentage by weight of a UV light protection filter was added and stirred until this amount had fully and homogeneously dissolved. This procedure was repeated until the maximal soluble amount of the UV light protection filter had been exceeded. […] If the maximum concentration had been roughly determined in this manner, a fine determination of the concentration range was repeated around this maximum concentration using smaller weighed amounts of the UV light protection filter.

## C12-15 Alkyl Benzoate
Bis-Ethylhexyloxyphenol Methoxyphenyl Triazine in the compound as solvent
  dissolution capacity for BEMT (maximal soluble amount): 9%
Butyl Methoxydibenzoylmethane in the compound as solvent
  dissolution capacity for BMDM (maximal soluble amount): 13%
Ethylhexyl Triazone in the compound as solvent
  dissolution capacity for EHT (maximal soluble amount): 4%
